Reference: US7809428B2, “Devices for detection and therapy of atheromatous plaque” (The General Hospital Corporation, priority 2001, dated 2010)

Test system: balloon-injured abdominal aorta plaque
Assay: In vivo photodynamic therapy of rabbit aorta through flowing blood
Settings: injected 24 hours before light, approximately 665 nm, approximately 100 J/cm

## Mal-BSA-ce6
  short-term toxicity of PDT in living rabbits: no short-term toxicity
